Laboratory results as given in ChEMBL document CHEMBL5390287, “Discovery of a Tritiated Radioligand with High Affinity and Selectivity for the Histamine H3 Receptor” (ACS Med Chem Lett, 2023).

Sequences of proteins named here, by UniProt entry; tags and fusion partners are left off. A change or cut given only in a name is not applied to a line headed by its entry.
UniProt Q9Y5N1: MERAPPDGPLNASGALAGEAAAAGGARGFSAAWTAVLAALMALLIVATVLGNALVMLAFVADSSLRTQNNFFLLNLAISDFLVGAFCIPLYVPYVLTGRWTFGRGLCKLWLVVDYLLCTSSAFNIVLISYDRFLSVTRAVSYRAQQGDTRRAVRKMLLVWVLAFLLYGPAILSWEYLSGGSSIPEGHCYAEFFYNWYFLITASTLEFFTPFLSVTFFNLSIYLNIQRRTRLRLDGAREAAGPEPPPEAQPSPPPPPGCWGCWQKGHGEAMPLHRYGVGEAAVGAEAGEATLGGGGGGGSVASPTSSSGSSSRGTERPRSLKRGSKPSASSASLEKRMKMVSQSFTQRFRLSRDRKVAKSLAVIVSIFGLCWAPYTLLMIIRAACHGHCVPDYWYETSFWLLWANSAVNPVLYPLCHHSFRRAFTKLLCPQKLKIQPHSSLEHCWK

Assays:
Histamine H3 receptor [1] = molecular target: T1, Histamine H3 receptor (Homo sapiens, UniProt Q9Y5N1); test: Binding affinity to SP-FLAG tagged human histamine H3 receptor expressed in HEK293T cells using sodium containing Leibovitz's L-15 medium incubated for 60 min by scintillation counter analysis; type: cell-based
Histamine H3 receptor [2] = molecular target: T1, Histamine H3 receptor; test: Displacement of [3H]UR-MN259 from SP-FLAG tagged human histamine H3 receptor expressed in HEK293T cells assessed as inhibition constant incubated for 60 min by scintillation counter analysis; type: cell-based

## NC(=NCc1ccc(Cl)cc1)SCCCc1cnc[nH]1 [CLOBENPROPIT]
Histamine H3 receptor [1]
  Ki: 0.347 nM
Histamine H3 receptor [2]
  Ki: 1.45 nM
